Test system: KDM4DJmjC (M1–L358)
Experiment: MALDI-TOF demethylation assay, KDM4DJmjC
Format: biochemical, human
Conditions: KDM4DJmjC 2.4 µM, peptide 5.0 µM, 1 hr, duplicates
From the text: To investigate whether H3KP9me3 can be demethylated by other human KDM4 subfamily members, recombinant KDM4AJmjC (M1–L359) and KDM4DJmjC (M1–L358) were produced in E. coli following an adaption of literature procedures[38],[39]. […] No evidence for further demethylation was accrued. […] To test the ability of KDM3 and KDM7 subfamily representatives to demethylate H3KP9me2 or H3KP9me3, KDM3AJmjC (T515–S1317) and KDM7BJmjC (M37–N483) were produced using baculovirus/sf9 and E. coli expression systems, respectively[40],[41]. The synthesis of a histone H3 mimic peptide H3KP9me2 substrate is challenging as the tri-alkylated phosphine group is susceptible to oxidation during synthesis of the protected amino acid and during SPPS requiring oxygen-free conditions. Thus, to investigate if KDM3AJmjC or KDM7BJmjC can catalyse demethylation of H3KP9me2, an appropriate H3KP9me2 substrate was prepared in situ from H3KP9me3 using KDM4EJmjC (2.0 µM), in the presence of KDM3AJmjC (2.0 µM) or KDM7BJmjC (2.0 µM).
The following purified reader domains: TAF3PHD (R857-K924), KDM5APHD3 (JARID1A, M1489-V1641), BPTFPHD (L2583-N2751), KDM4ATTD (JMJD2A, Q897-P1011) and SGF29TTD (R115-K293) were prepared as reported[10],[22]–[26]. The histone lysine demethylase were produced and purified to high purity via reported procedures KDM3A (JMJD1A, T515-S1317)[41], KDM4AJmjC[39] […]

“ARTKQTAR(Kme3)STGGKA [H3K9me3, natural trimethyllysine control peptide, histone H3 residues 1–15, reference compound]” was tested, and the “demethylation” value was “clear demethylation activity”.

Source: article PMC7613515, “Reading and erasing of the phosphonium analogue of trimethyllysine by epigenetic proteins” (Communications Chemistry, 2022)
